{"sequences": {"note": "Protein sequences, listed by entry. Tags and fused reporters are not part of them.", "UniProt Q92993, whole entry, looked up": "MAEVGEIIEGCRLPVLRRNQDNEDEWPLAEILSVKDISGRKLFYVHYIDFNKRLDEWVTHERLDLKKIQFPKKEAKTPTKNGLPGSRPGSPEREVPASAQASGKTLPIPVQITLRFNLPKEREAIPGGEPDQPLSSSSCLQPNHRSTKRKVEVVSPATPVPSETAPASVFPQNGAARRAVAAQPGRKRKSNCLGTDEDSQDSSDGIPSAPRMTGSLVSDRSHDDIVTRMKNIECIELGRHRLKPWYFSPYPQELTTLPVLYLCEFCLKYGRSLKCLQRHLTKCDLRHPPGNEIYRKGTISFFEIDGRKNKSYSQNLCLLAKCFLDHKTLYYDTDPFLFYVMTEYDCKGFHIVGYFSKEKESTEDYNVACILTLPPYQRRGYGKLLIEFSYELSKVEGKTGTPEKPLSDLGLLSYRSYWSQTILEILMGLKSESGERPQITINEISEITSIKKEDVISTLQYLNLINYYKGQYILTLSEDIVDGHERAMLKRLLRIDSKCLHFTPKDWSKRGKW"}, "source": "ChEMBL document CHEMBL1933039", "about": "“6-alkylsalicylates are selective Tip60 inhibitors and target the acetyl-CoA binding site” (Eur J Med Chem, 2012)", "key": {"[1]": {"molecular_target": "T1, Histone acetyltransferase KAT5 (Homo sapiens, UniProt Q92993)"}, "[2]": {"molecular_target": "T1, Histone acetyltransferase KAT5", "remark": "listed apart in the source"}, "[3]": {"molecular_target": "T1, Histone acetyltransferase KAT5", "assay": "Inhibition of human recombinant His-tagged Tip60 expressed in Escherichia coli BL21(DE3) cells using [14C]Ac-AoA and histone H4 as substrate after 5 mins by scintillation counting"}}, "data": [{"smiles": "CCCCCCCc1ccc(CCc2cccc(O)c2C(=O)O)cc1", "values": [{"measurement": "Kis", "setting": "[1]", "result": 54, "unit": "µM"}, {"measurement": "Kis", "setting": "[2]", "result": "> 660", "unit": "µM"}, {"measurement": "IC50", "setting": "[3]", "result": 74, "unit": "µM"}]}]}
